{"source": "patent US11572399B2", "about": "“Long-acting GIP peptide analogues” (University of Copenhagen, priority 2017, dated 2023)", "key": {"human GIP receptor [1]": {"molecular_target": "T1, human GIP receptor (Homo sapiens, UniProt P48546)", "T1 construct": "host or cells: COS-7, transient transfection (calcium phosphate), cDNA in pCMV-Script", "T1 sequence (P48546 22-466)": "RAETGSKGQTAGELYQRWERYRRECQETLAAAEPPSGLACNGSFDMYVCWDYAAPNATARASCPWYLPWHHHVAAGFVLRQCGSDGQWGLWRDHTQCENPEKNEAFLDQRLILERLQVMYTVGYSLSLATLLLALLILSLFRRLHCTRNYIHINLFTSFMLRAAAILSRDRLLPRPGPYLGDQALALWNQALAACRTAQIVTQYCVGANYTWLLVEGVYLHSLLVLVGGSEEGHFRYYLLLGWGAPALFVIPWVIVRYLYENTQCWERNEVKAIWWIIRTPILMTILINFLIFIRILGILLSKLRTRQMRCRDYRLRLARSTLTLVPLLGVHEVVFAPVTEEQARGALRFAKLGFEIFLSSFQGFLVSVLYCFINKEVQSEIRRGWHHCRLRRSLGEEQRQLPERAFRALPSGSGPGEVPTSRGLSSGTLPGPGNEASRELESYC", "assay": "cAMP accumulation assay, antagonism of a GIP-mediated cAMP response (50-80% of max)", "type": "cell-based", "details": "fold vs GIP(3-30)NH2; Table 3b", "procedure": "The day after, the cells were washed twice with Hepes buffered saline (HBS) buffer and incubated with HBS and 1 mM 3-isobutyl-1-methylxanthine (IBMX) for 30 min at 37° C. […] The HitHunter™ cAMP XS assay (DiscoveRx) was carried out according to the manufacturer's instructions."}, "human GIP receptor [2]": {"molecular_target": "T1, human GIP receptor", "assay": "125I-human GIP competition binding assay, in the presence and absence of 2% HSA;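 also: nonspecific binding taken as radioligand bound to untransfected cells, IC50 obtained from nonlinear regression fits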", "details": "fold decrease in affinity compared to GIP(3-30)NH2; Table 3b"}}, "data": [{"smiles": "CCCCCCCCCCCCCCCC(=O)NCCCC[C@H](NC(=O)[C@H](CC(=O)O)NC(=O)[C@H](CCSC)NC(=O)[C@H](C)NC(=O)[C@@H](NC(=O)[C@H](CO)NC(=O)[C@H](Cc1ccc(O)cc1)NC(=O)[C@H](CC(=O)O)NC(=O)[C@H](CO)NC(=O)[C@@H](NC(=O)[C@H](Cc1ccccc1)NC(=O)[C@@H](NC(=O)CNC(=O)[C@@H]1CCC(=O)N1)[C@@H](C)O)[C@@H](C)CC)[C@@H](C)CC)C(=O)N[C@H](C(=O)N[C@@H](Cc1c[nH]cn1)C(=O)N[C@@H](CCC(N)=O)C(=O)N[C@@H](CCC(N)=O)C(=O)N[C@@H](CC(=O)O)C(=O)N[C@@H](Cc1ccccc1)C(=O)N[C@H](C(=O)N[C@@H](CC(N)=O)C(=O)N[C@@H](Cc1c[nH]c2ccccc12)C(=O)N[C@@H](CC(C)C)C(=O)N[C@@H](CC(C)C)C(=O)N[C@@H](C)C(=O)N[C@@H](CCC(N)=O)C(=O)N[C@@H](CCCCN)C(N)=O)C(C)C)[C@@H](C)CC", "note": "[AT109]", "values": [{"measurement": "cAMP - antagonisme fold (paired)", "setting": "human GIP receptor [1]", "value": 8.0, "unit": "fold"}, {"measurement": "Binding fold (paired)", "setting": "human GIP receptor [2]", "value": 74, "unit": "fold"}]}]}
